Laboratory results: paper PMC5663884, “Compositional and expression analyses of the glideosome during the Plasmodium life cycle reveal an additional myosin light chain required for maximum motility” (The Journal of Biological Chemistry, 2017)

Assays:
[1] = molecular target: Recombinant GST-tagged PfMyoA (wheat germ cell-free system) (P. falciparum) (UniProt Q8IDR3); assay: optical tweezers (single-molecule three-bead assay); actin filament held between two neutravidin-coated beads, MyoA on a third bead; 0.3 μM ATP
[2] = molecular target: Recombinant GST-tagged PfMyoA (wheat germ cell-free system) (P. falciparum) (UniProt Q8IDR3); assay: optical tweezers (single-molecule three-bead assay); actin filament held between two neutravidin-coated beads, MyoA on a third bead; 8 μM ATP

Actin filaments (F-actin) (from UniProt P68135 1-377) (natural protein)
average duration of acto-MyoA binding events at 0.3 μM ATP [1]: 0.1 s | rate constant of the single-exponential fit to event lifetimes at 0.3 μM Mg·ATP [1]: 6.9 s⁻¹ | average duration of acto-MyoA binding events at 8 μM ATP [2]: 0.013 s | rate constant of the single-exponential fit to event lifetimes at 8 μM Mg·ATP [2]: 53 s⁻¹
